Drawing on patent publication US20230295130A1, “COMPOUND USEFUL AS CDK7 KINASE INHIBITOR AND USE THEREOF” (TYK MEDICINES, INC., priority 2020, published 2023), this text covers IC50 for 4 molecules.

The chains behind the UniProt entries cited, without tags or fusion partners. Residues count along the entry.
UniProt P50613, whole entry: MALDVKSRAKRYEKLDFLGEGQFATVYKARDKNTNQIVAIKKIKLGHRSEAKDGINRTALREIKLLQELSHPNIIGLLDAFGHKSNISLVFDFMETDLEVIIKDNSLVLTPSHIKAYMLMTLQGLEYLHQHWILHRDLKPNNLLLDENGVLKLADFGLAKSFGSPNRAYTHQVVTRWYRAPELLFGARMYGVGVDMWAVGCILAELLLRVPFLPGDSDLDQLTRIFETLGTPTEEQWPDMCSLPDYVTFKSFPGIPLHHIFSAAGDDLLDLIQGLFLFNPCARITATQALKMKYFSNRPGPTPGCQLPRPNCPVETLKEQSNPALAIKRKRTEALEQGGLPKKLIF
UniProt P50750, whole entry: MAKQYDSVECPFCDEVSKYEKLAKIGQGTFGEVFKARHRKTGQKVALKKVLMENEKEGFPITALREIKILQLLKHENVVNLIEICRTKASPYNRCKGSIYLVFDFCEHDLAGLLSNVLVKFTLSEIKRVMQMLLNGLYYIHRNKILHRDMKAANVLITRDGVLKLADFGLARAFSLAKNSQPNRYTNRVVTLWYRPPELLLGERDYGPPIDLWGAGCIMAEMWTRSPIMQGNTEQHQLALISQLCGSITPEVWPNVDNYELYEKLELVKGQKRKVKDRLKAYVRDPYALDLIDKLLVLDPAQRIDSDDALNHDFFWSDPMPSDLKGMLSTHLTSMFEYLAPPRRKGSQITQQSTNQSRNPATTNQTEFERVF
UniProt Q9NYV4, 686-1082 limits assumed: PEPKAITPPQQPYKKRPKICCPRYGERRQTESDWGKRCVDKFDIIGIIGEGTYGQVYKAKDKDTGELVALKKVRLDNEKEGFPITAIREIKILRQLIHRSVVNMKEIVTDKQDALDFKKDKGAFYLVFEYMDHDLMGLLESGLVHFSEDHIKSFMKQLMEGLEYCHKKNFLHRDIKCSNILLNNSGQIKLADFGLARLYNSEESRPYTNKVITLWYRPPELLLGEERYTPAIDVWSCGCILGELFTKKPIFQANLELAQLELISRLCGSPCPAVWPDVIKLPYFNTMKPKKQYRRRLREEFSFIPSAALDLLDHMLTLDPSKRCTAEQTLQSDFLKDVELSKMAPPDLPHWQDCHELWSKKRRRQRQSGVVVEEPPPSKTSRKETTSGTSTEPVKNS
UniProt P51946, whole entry partner: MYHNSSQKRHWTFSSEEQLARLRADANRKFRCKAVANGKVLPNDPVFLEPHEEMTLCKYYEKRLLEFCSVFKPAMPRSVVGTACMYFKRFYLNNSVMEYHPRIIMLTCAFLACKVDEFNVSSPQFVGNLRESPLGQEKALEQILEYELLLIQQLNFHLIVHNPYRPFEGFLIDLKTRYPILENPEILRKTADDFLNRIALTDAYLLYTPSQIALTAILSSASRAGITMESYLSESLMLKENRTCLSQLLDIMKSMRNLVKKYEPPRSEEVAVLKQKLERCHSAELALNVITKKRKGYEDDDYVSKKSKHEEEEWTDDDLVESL
UniProt P51948, whole entry partner: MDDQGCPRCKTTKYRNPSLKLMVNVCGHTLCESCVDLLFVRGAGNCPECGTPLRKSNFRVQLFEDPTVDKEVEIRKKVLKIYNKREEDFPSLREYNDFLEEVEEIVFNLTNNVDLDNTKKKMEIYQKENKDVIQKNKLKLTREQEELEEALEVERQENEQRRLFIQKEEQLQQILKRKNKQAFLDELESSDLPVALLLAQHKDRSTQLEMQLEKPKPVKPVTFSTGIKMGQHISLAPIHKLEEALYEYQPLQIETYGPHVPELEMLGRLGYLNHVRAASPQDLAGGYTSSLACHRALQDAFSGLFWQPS
UniProt O75909, whole entry partner: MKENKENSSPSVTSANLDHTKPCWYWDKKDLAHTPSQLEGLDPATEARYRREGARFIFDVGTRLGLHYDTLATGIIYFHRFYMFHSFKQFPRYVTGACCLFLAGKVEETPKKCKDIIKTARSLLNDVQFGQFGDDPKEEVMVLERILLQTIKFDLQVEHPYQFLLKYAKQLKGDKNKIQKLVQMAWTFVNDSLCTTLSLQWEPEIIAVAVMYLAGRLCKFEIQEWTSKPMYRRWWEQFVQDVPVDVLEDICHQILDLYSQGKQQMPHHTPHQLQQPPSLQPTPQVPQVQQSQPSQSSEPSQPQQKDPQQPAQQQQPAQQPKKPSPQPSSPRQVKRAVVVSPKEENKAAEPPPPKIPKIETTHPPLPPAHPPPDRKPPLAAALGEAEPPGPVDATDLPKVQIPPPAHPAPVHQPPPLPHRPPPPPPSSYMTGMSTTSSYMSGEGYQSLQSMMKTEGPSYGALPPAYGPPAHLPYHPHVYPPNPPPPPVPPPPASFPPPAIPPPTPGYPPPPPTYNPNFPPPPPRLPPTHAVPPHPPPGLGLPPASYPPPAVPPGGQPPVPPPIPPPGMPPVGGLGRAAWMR
UniProt O60563, whole entry partner: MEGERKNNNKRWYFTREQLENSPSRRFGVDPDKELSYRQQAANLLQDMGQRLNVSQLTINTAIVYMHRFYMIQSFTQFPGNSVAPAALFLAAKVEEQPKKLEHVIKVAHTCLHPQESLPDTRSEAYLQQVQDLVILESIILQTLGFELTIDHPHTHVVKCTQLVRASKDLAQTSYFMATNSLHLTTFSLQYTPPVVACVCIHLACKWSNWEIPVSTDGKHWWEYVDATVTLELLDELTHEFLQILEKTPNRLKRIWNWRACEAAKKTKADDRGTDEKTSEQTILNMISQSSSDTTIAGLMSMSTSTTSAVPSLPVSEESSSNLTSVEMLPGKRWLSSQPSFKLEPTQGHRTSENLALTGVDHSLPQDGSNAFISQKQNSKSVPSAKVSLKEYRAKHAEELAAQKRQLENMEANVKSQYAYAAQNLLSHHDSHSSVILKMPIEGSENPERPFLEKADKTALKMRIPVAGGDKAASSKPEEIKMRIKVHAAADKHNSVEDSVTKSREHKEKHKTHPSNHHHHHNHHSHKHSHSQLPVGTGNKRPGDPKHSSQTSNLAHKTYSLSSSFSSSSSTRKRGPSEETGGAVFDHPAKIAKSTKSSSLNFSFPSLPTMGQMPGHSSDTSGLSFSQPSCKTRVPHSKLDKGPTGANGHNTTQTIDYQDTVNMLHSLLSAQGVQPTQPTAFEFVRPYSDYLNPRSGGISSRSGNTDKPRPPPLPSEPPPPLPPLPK

Holding throughout (assay): Enzyme activity test, mobility shift assay (Table 1)
Assay [1] addresses CDK7/Cyclin H/MAT1 kinase (Homo sapiens (Human), UniProt P50613). The class given is biochemical. The following applies: read-out: CDK7 kinase IC50; 2 mM ATP; pre-incubated 0 and 60 minutes.
Assay [2] deals with CDK9/Cyclin Tl (Homo sapiens (Human), UniProt P50750). The class given is biochemical. The following applies: read-out: CDK9 kinase IC50; 2 mM ATP.
Assay [3] concerns the target CDK12 (aa686-1082)/Cyclin K (Homo sapiens (Human), UniProt Q9NYV4). The following applies: read-out: CDK12 kinase IC50; 2 mM ATP.
Assay [4] deals with CDK2/Cyclin El (Homo sapiens (Human), UniProt P24941). To be noted: read-out: CDK2 kinase IC50; 2 mM ATP.

A value given as a limit tells only on which side of the number the result lay.

As for `COC(=O)Nc1ccc2c(-c3nc(Nc4ccc(C)nc4)ncc3C(F)(F)F)c[nH]c2c1Br`, the IC50 in assay [1] is over 500 nM.

Turning to `COC(=O)Nc1ccc2c(-c3nc(N[C@H]4CCC5(CC5)NC4)ncc3C(F)(F)F)c[nH]c2c1OC(F)(F)F`, the concentration for half-maximal inhibition (IC50) in assay [1] is under 50 nM.

As to `COC(=O)Nc1ccc2c(-c3nc(N[C@@H]4CCCNC4)ncc3C(F)(F)F)c[nH]c2c1Br`, in assay [1], the concentration for half-maximal inhibition (IC50) is over 500 nM.

Consider `COC(=O)Nc1ccc2c(-c3nc(N[C@H]4CCCN(C)C4)ncc3C(F)(F)F)c[nH]c2c1Br`, for which the concentration for half-maximal inhibition (IC50) in assay [1] was under 50 nM; in assay [2] it was over 500 nM; in assay [3], over 500 nM; in assay [4], over 500 nM.

By IC50 is commonly meant the concentration that gives 50% inhibition.
